Values joined by “and” are separate entries in the source; they are usually repeats but may differ in a detail not shown here. Identical values can stand only once. Like-named read-outs stand apart in the source and are kept apart here. Marks after values point to notes of the source that are not given here.

The subject of series [1] is P. falciparum 3D70087/N9. To be noted: SCID mouse, cited from earlier work.
In series [2] the test system is P. falciparum 3D70087/N9. To be noted: SCID mouse.

In the case of `Cc1cc(Nc2ccc(S(F)(F)(F)(F)F)cc2)n2nc(C(C)(F)F)nc2n1` [Compound 1], in the series with P. falciparum 3D70087/N9 [1] (BID), the “Blood AUCED90” value was 10.8 µg·h/mL and the ED90 is 3.0 (BID) mg/kg/day. Further, in the series with P. falciparum 3D70087/N9 [1] (QD), the “Blood AUCED90” value was 16.7 µg·h/mL; the ED90 was ~ 8 mg/kg/day and 8.1 (QD) mg/kg/day; the “Unbound blood AUC” value was 0.023 µg·h/mL.
In the case of `Cc1cc(Nc2ccc(C(F)(F)F)nc2)n2nc(C(C)(F)F)nc2n1` [DSM421, 2-(1,1-difluoroethyl)-5-methyl-N-(6-(trifluoromethyl)pyridin-3-yl)-[1,2,4]triazolo[1,5-a]pyrimidin-7-amine], the ED90 in the series on P. falciparum 3D70087/N9 [1] (QD) is listed as 2.6 (QD) mg/kg/day.
For the molecule `Cc1c(Cc2ccc(C(F)(F)F)nc2)c[nH]c1C(=O)NC1CC1` [Compound 37], the tolerability result with P. falciparum 3D70087/N9 [2] (50 mg/kg oral QD x4, both studies) is recorded as “well tolerated”. The “Blood AUCED90” value in the series on P. falciparum 3D70087/N9 [2] (QD) was roughly 9 µg·h/mL. Further, the ED90 with P. falciparum 3D70087/N9 [2] (QD, 4 days oral, average of two studies) is listed as ~50 ^* (QD) mg/kg/day.

Values taken from publication PMC7394244 (Journal of medicinal chemistry, 2020).
